Values quoted from earlier work, collected in patent EP2669276A1 (Université de Strasbourg, priority 2012, dated 2013).

System: hyperalgesia induced by administration of opiate analgesics
Conditions: rat; single administration 0.5 mg/kg, i.p.; WO02/24192; cited from earlier work

In the case of “N^α-adamantan-1-yl-L-Arg-L-Phe-NH2 acetate”, the “hyperalgesia induced by administration of fentanyl” value is given as “blocks”.
